Data from US10183939B2, “Fused bicyclic (hetero)aromatic compounds useful for the treatment of cancers” (Redx Pharma PLC, priority 2014, dated 2019).

Amino acid sequences for entries named in this document (tags omitted). Residues count along the entry.
UniProt P15056, whole entry V600E: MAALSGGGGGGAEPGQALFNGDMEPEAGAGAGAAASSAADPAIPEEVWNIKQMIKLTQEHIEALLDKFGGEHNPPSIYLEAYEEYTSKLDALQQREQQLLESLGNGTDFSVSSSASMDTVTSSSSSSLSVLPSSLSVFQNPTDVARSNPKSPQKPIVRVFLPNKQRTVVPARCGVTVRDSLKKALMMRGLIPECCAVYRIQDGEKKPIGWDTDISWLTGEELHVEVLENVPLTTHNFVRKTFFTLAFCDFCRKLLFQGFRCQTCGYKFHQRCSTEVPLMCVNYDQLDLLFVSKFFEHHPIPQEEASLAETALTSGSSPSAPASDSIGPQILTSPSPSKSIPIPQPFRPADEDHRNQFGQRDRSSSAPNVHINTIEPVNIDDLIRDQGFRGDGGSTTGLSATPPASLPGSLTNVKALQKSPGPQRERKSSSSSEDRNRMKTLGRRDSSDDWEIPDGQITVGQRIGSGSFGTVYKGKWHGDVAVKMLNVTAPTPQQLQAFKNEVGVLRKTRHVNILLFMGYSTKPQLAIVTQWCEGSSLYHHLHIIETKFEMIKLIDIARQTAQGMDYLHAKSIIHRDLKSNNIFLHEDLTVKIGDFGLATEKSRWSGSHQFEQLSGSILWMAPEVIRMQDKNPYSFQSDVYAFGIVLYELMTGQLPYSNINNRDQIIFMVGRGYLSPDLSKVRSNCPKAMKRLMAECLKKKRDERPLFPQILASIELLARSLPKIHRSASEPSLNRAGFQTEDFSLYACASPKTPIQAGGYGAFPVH
UniProt P04049, 306-648 Y340D/Y341D: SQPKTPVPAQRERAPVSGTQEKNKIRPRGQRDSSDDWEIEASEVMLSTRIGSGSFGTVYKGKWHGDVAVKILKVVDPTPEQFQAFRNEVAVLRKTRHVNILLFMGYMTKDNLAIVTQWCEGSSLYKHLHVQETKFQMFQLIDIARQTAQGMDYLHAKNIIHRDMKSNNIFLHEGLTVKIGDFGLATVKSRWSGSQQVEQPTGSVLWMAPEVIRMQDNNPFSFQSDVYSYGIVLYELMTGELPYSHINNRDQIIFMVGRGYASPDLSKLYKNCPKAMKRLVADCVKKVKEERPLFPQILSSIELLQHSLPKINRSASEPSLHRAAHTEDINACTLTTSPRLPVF

Assays:
B-RAF^V600E kinase = B-RAF^V600E kinase (Homo sapiens (Human), UniProt P15056, V600E); experiment: LanthaScreen Eu kinase binding assay (B-RAF V600E); conditions: tracer 178 competition, 5 hours
C-RAF Y340D/Y341D kinase = C-RAF Y340D/Y341D kinase (Homo sapiens (Human), UniProt P04049, Y340D/Y341D); experiment: LanthaScreen Eu kinase binding assay (C-RAF); conditions: tracer 178 competition, 5 hours
Method: LanthaScreen™ Eu kinase binding assay
To determine whether compounds bind to RAF kinases, they are tested in a competition binding assay. The Invitrogen LanthaScreen™ Eu binding assay involves the binding of an Alexa-Fluor® 647-labelled, ATP-competitive kinase tracer to the kinase of interest. A Europium-labelled anti-tag antibody also binds to the kinase of interest. Simultaneous binding of the tracer and the antibody brings them into close proximity and upon excitation at 340 nm, triggers fluorescence resonance energy transfer (FRET) between the Europium donor fluorophore on the antibody and the Alexa Fluor® 647 acceptor on the tracer. The dual emission signal produced can be measured at 665 and 615 nm.
Compounds at a concentration of 3 mM are serially diluted (e.g. 10 μl 90 μl of 100% dimethyl sulfoxide (DMSO)) seven times in 96-well plates for a total of 8 dilution points. Each DMSO dilution is further diluted 1:100 in kinase buffer (e.g. 5 μl into 495 μl kinase buffer) containing 50 mM HEPES pH 7.5, 10 mM MgCl2, 1 mM EGTA, 0.01% Brij-35.
Each well in a 96-well Optiplate™ (Perkin Elmer 6005569) contains 30 μl of final volume per sample, including 10 μl compound at 3× the desired concentration, providing 10 μM at the final maximum concentration, 10 μl of kinase/antibody mixture at 3× the desired concentration of RAF recombinant kinases and antibody providing 5 nM final concentration of B-RAF^V600E kinase (Invitrogen PV3849) and 3 nM final concentration of C-RAF Y340D/Y341D kinase (Invitrogen PV3805) and 2 nM final concentration of Eu-anti-GST antibody (PV5594), and 10 μl of 3× the desired concentration of kinase tracer 178 (Invitrogen PV5593) providing final concentrations of 20 nM tracer for B-RAF^V600E kinase and 6 nM tracer for C-RAF kinase. The plates are incubated for 5 hours at room temperature and read on an EnVision plate reader (Perkin Elmer).
All data are analysed using the GraphPad Prism software package. Inhibition of tracer binding to the kinase of interest is assessed by determination of IC50 value, which is defined as the concentration of compound which decreased the level of FRET signal measured at 665 nm by 50%.

[1] = IC50 category, read-out: BRAF^V600E binding affinity
[2] = read-out: BRAF^V600E binding affinity IC50
[3] = IC50 category, read-out: CRAF binding affinity
[4] = read-out: CRAF binding affinity IC50

IC50 (B-RAF^V600E kinase; [1]) [nM] | IC50 (B-RAF^V600E kinase; [2]) [nM] | IC50 (C-RAF Y340D/Y341D kinase; [3]) [nM] | IC50 (C-RAF Y340D/Y341D kinase; [4]) [nM] | SMILES
< 4 | 1.5 | < 4 | 1 | O=C1CCc2c(Oc3ccc4c(c3)CC(c3nc(-c5ccccc5)c[nH]3)CO4)ccnc2N1 (single isomer, unassigned) [Example 3A, 5-[3-(4-phenyl-1H-imidazol-2-yl)chroman-6-yl]oxy-3,4-dihydro-1H-1,8-naphthyridin-2-one]
< 4 | 1.4 | < 4 | 0.8 | O=C1CCc2c(Oc3ccc4c(c3)CC(c3nc(-c5ccccc5)c[nH]3)CO4)ccnc2N1 (stereo not drawn) [Example 3B, 5-[3-(4-phenyl-1H-imidazol-2-yl)chroman-6-yl]oxy-3,4-dihydro-1H-1,8-naphthyridin-2-one]
< 4 | 0.8 | < 4 | 0.6 | O=C1CCc2c(Oc3ccc4c(c3)CC(c3nc(-c5ccccc5)c[nH]3)CO4)ccnc2N1 (stereo not drawn) [Example 3, 5-[3-(4-phenyl-1H-imidazol-2-yl)chroman-6-yl]oxy-3,4-dihydro-1H-1,8-naphthyridin-2-one]

Read-outs that look alike come from different tables or passages of the source.
